AlphaSeq binding of Ab-14 light chain variants to a spike HR2 peptide

Source: Li et al. 2023 (doi:10.1038/s41467-023-39022-2), MIT Lincoln Laboratory and A-Alpha Bio; data file from the FLAb repository.

The target is the same throughout: PDVDLGDISGINAS, from the HR2 region of SARS-CoV-2 spike.

Ab-14 is the parent antibody, in scFv form: VH, then a (GGGGS)3 linker, then VL. The heavy chain is unchanged in all variants.
VH: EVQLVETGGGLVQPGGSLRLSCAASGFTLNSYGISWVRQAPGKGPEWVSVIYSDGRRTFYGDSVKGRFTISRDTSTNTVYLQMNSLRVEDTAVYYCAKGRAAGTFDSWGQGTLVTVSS
VL: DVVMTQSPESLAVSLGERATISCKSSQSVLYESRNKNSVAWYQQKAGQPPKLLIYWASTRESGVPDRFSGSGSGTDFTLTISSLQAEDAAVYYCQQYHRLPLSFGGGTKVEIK

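Phage display of a naive human antibody library on the peptide gave the parent. Designed CDR sequences, proposed from the first random library and measured here. Their group label is 14L_En_Gen (En: ensemble of fine-tuned language models; Gen: genetic algorithm). AlphaSeq pools MATa yeast showing the antibodies with MATalpha yeast showing the peptide. Pairs that bind mate more often; barcode pairs of the diploids are counted by sequencing. Each replicate has its own calibration line, from reference interactions of the BCL2 family. The assay was run in six technical replicates.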

Variants are written as CDR1, CDR2 and CDR3 of the light chain (limits as in the source). Parent: KSSQSVLYESRNKNSVA, WASTRES, QQYHRLPLS.
The read-out is the apparent dissociation constant on a log10 scale (nM): the lower, the stronger.
Averages over replicates are reported, and they cover detected replicates only.
A pair that was not seen in that replicate is written "ND"; this usually means weak binding, but a binder can also be missed.
A sequence measured in both rounds can read differently, since the two assays cover different ranges.

CDR-L1,CDR-L2,CDR-L3,log10 Kd (nM) by replicate,mean log10 Kd (nM),signal with controls
TISQVMNTLTRQGNNVA,DLQNRED,QQYFRLPLS,ND ND 1.38 1.42 1.19 ND,1.33,1 of 18 (0.88)
MISQLGNMGQFAINSVA,QASLRND,QQYDRLPLM,0.53 0.54 0.63 0.99 0.39 1.02,0.68,0 of 18
MLSQMWAIGQKVKNSVA,QASMRFN,QQYDRLPLI,2.60 2.55 1.92 2.28 2.02 3.24,2.44,0 of 18
KLSQFTGHLSVEKNNVA,EMETREN,QQYDRLPLS,ND 0.62 0.87 0.23 0.58 0.52,0.57,0 of 18
MISQVLNTLTKEGNNVA,DLAERER,QQYFRLPLS,2.19 2.22 1.75 1.69 1.59 1.76,1.87,0 of 18
KIGMTLNFEEMKKNNVA,DLVAREN,QQYHRLPLS,1.00 0.95 0.06 1.26 1.47 0.02,0.80,0 of 18
HITMGMYVHGRYKSNIA,QAETRMK,QQYDRLPLM,1.16 2.05 0.88 0.89 0.93 1.48,1.23,1 of 18 (1.37)
KLSQITGHLSVSKNNVA,EMETRAN,QQYDRLPLS,0.65 0.75 0.43 0.52 0.71 0.76,0.64,1 of 18 (2.08)
IVSQLMLWGMHVKNSIA,EAQTRVN,QQYDRLPLF,1.07 ND ND ND 2.21 ND,1.64,0 of 18
TIGVTLMQGIRNRSNVA,EVSERLN,QQYDRLPLT,2.73 1.53 1.28 1.87 2.33 2.01,1.96,0 of 18
TLSQITGHMSMAKNNVA,EMETREN,QQYDRLPLS,ND 1.99 2.06 2.01 1.89 1.61,1.91,1 of 18 (3.54)
TISQMTSWMSNVKNNVA,EVSTREN,QQYDRLPLS,2.94 2.21 1.34 2.02 1.53 2.49,2.09,2 of 18 (2.97)
MISQLYNMGQFAINSVA,QASIRNQ,QQYDRLPLD,1.12 1.14 1.36 2.22 0.66 1.19,1.28,0 of 18
MVTQLMLWGWHAKNSIA,EAQTRIN,QQYDRLPLF,2.06 ND ND ND ND 2.23,2.14,0 of 18
HITYGMQVAGRHSKSIA,QAETRAK,QQYDRLPLI,1.19 0.95 1.45 1.19 1.85 1.31,1.32,1 of 18 (3.18)
IVSQLMLWGLHAKNSIA,EAEMRLN,QQYDRLPLF,ND ND ND 1.45 ND 0.89,1.17,0 of 18
HITYGMMVHGRHSKSIA,QAETRAK,QQYDRLPLM,0.72 1.44 1.49 1.31 ND 1.98,1.39,1 of 18 (1.62)
MISQLMNMGQFAINSVA,QASIRNE,QQYDRLPLT,2.37 1.04 0.51 1.05 1.41 1.78,1.36,0 of 18
KLSQTSGMEHVSRNSVA,ELVTRMS,QQYNRLPLS,1.03 0.81 0.51 0.64 0.89 1.15,0.84,1 of 18 (2.89)
NIYQAMHTLSQMKDNVA,DVNERGQ,QQYFRLPLS,0.88 0.07 0.28 0.09 0.55 0.46,0.39,0 of 18
SISGFMKSLSAHMNSVA,DMTNREN,QQYDRLPLS,0.43 0.41 0.25 0.29 0.39 0.24,0.33,2 of 18 (2.91)
KIGGTLNQLMTKKNNVA,DLVMREQ,QQYHRLPLS,0.11 0.17 0.04 0.17 -0.12 0.32,0.12,0 of 18
MMSQVWGMGQRHINNVA,QTSTREP,QQYDRLPLI,0.27 0.41 0.17 0.19 0.30 0.43,0.29,0 of 18
KVSGFMRGLMMRKDSIA,DNETRSN,QQYDRLPLS,ND ND ND ND 2.51 ND,2.51,0 of 18
KISQMQRVGQTHGNSIA,EEATRAN,QQYHRLPLS,0.40 0.00 -0.14 0.48 -0.15 0.37,0.16,1 of 18 (1.62)
IVSQVMSWGIHAKNSIA,EAQTRCN,QQYDRLPLF,1.00 1.46 1.30 1.29 0.81 1.32,1.20,2 of 18 (2.64)
TIGQMLMQGIRNRSNVA,EVSQRLN,QQYDRLPLA,1.19 1.83 1.52 1.11 1.89 1.27,1.47,0 of 18
TLGSNMMVESVHKNNVA,ELSTRLN,QQYVRLPLS,1.16 0.88 0.87 1.13 0.64 0.99,0.94,1 of 18 (2.48)
MISQLYNMGQFAINSVA,QASQRCE,QQYDRLPLL,1.60 1.38 1.74 1.54 1.47 2.04,1.63,0 of 18
MLSEVLHMLGVAKNSIA,DLVLRAN,QQYARLPLM,ND 4.01 ND ND ND ND,4.01,1 of 18 (2.27)
KLTNVTGTEKVLGNNVA,EMETRER,QQYNRLPLA,ND ND 1.07 1.76 3.02 2.22,2.02,0 of 18
KVSEFMRGLMSRKDSIA,DNTTRNH,QQYDRLPLS,ND 2.68 ND ND 2.33 2.94,2.65,2 of 18 (2.89)
NISHFMDVTAKHNNNVA,EMTMREM,QQYHHLPLS,1.18 1.41 0.67 0.48 1.15 1.11,1.00,0 of 18
TIQQMMSLFSQTINNVA,EVSTREK,QQYDRLPLA,0.92 1.06 0.79 1.18 1.14 1.24,1.05,2 of 18 (2.95)
KLSQTHGMEMVNRNSVA,ELVTRMS,QQYNRLPLS,ND ND ND ND 2.18 ND,2.18,0 of 18
TISQMSQTFSQTINNVA,EVSTRLN,QQYDRLPLA,0.89 0.90 0.78 0.73 0.79 1.01,0.85,4 of 18 (2.62)
TISGVMQSVSHSKNNVA,EMNTRLE,QQYVRLPLA,0.67 0.86 0.61 0.66 0.64 0.86,0.72,2 of 18 (2.55)
KLYYNTGTESFRKDNIA,DNDLREE,QQYDRLPLS,1.13 1.92 1.99 0.93 1.03 1.01,1.33,1 of 18 (3.55)
HITMGMYVMGRHHSSIA,QAETRAK,QQYDRLPLI,ND ND ND ND ND ND,ND,0 of 18
TIGQTLMSGVMNRSNVA,EVSQRLN,QQYDRLPLL,0.67 0.36 0.57 0.63 0.53 1.09,0.64,1 of 18 (2.29)
MLGDVAQGLSRKHNSVA,DNSTRES,QQYDRLPLS,ND 3.01 ND 2.83 2.47 ND,2.77,2 of 18 (2.67)
TLSQITGHMSMSKNNVA,EMETREN,QQYDRLPLS,0.58 0.65 0.33 0.58 0.54 0.77,0.57,0 of 18
KISQMARVGSTHSNSIA,EEATRSD,QQYHRLPLS,0.96 0.72 0.68 0.42 0.80 0.63,0.70,1 of 18 (2.84)
MVNGIMDHLSKNTNNVA,ETTTRES,QQYDRLPLV,0.45 0.59 0.68 0.74 0.79 0.85,0.68,1 of 18 (2.61)
MVSQLMLWGLHAKNSIA,EAVTRYN,QQYDRLPLI,3.87 ND ND ND 2.91 ND,3.39,1 of 18 (1.58)
KIGFTLNQLMHKKNNVA,DLVTREQ,QQYHRLPLS,1.13 0.61 -0.14 0.50 0.02 0.58,0.45,1 of 18 (1.73)

For reference, 6 entries of the list once more:

{"CDR-L1": "KLSQTSGMEHVSRNSVA", "CDR-L2": "ELVTRMS", "CDR-L3": "QQYNRLPLS", "log10 Kd (nM) by replicate": "1.03 0.81 0.51 0.64 0.89 1.15", "mean log10 Kd (nM)": "0.84", "signal with controls": "1 of 18 (2.89)"}
{"CDR-L1": "MISQLGNMGQFAINSVA", "CDR-L2": "QASLRND", "CDR-L3": "QQYDRLPLM", "log10 Kd (nM) by replicate": "0.53 0.54 0.63 0.99 0.39 1.02", "mean log10 Kd (nM)": "0.68", "signal with controls": "0 of 18"}
{"CDR-L1": "TISQMSQTFSQTINNVA", "CDR-L2": "EVSTRLN", "CDR-L3": "QQYDRLPLA", "log10 Kd (nM) by replicate": "0.89 0.90 0.78 0.73 0.79 1.01", "mean log10 Kd (nM)": "0.85", "signal with controls": "4 of 18 (2.62)"}
{"CDR-L1": "IVSQLMLWGLHAKNSIA", "CDR-L2": "EAEMRLN", "CDR-L3": "QQYDRLPLF", "log10 Kd (nM) by replicate": "ND ND ND 1.45 ND 0.89", "mean log10 Kd (nM)": "1.17", "signal with controls": "0 of 18"}
{"CDR-L1": "KLSQITGHLSVSKNNVA", "CDR-L2": "EMETRAN", "CDR-L3": "QQYDRLPLS", "log10 Kd (nM) by replicate": "0.65 0.75 0.43 0.52 0.71 0.76", "mean log10 Kd (nM)": "0.64", "signal with controls": "1 of 18 (2.08)"}
{"CDR-L1": "KISQMARVGSTHSNSIA", "CDR-L2": "EEATRSD", "CDR-L3": "QQYHRLPLS", "log10 Kd (nM) by replicate": "0.96 0.72 0.68 0.42 0.80 0.63", "mean log10 Kd (nM)": "0.70", "signal with controls": "1 of 18 (2.84)"}

The authors averaged sequences with at least three values out of six and counted those with two or fewer as poor binders.
Background: pairings of all light chain designs with three empty control strains gave a value in 4% of cases (median 2.64, 5th percentile 1.59). Values in that range, when seen in few replicates, are hard to tell from nonspecific mating. For each scFv, signals with the empty controls are counted beside the result, with their mean in brackets.
Of ten entries with the parent sequence, four were seen in most replicates (averages 0.34 to 2.37), three in one and three in none, so single entries are noisy.